{"source": "ChEMBL document CHEMBL2010677", "about": "“Anti-inflammatory and PPAR transactivational effects of secondary metabolites from the roots of Asarum sieboldii” (Bioorg Med Chem Lett, 2012)", "data": [{"system": "HepG2", "experiment": "Inhibition of TNFalpha-induced NFkappaB transcriptional activity in human HepG2 cells pretreated for 1 hr before TNFalpha challenge by luciferase reporter gene analysis", "format": "cell-based", "values": [{"smiles": "c1cc2c(cc1[C@H]1OC[C@H]3[C@@H]1CO[C@@H]3c1ccc3c(c1)OCO3)OCO2", "note": "[SESAMIN]", "inhibition": "Dose-dependent effect"}, {"smiles": "c1cc2c(cc1[C@H]1OC[C@H]3[C@@H]1CO[C@H]3c1ccc3c(c1)OCO3)OCO2", "note": "[ASARININ]", "inhibition": "Dose-dependent effect"}, {"smiles": "CC=C/C=C\\CC/C=C/C=C/C(=O)NCC(C)C", "inhibition": "Dose-dependent effect"}]}]}
